Earlier results, collected in article PMC8387964.

Target: p67phox (Homo sapiens) (UniProt P19878)

Kd: 0.124 µM
Substance: Rac1 (from UniProt P63000)
